This note sets out measurements from patent US20260083826A1, “NEW SYNTHETIC DRUGS FOR TREATING ALZHEIMER'S DISEASE” (OKINAWA INSTITUTE OF SCIENCE AND TECHNOLOGY SCHOOL …, priority 2022, published 2026).

By UniProt entry, the sequences of proteins in these tests, tags left out.
UniProt P02550, whole entry: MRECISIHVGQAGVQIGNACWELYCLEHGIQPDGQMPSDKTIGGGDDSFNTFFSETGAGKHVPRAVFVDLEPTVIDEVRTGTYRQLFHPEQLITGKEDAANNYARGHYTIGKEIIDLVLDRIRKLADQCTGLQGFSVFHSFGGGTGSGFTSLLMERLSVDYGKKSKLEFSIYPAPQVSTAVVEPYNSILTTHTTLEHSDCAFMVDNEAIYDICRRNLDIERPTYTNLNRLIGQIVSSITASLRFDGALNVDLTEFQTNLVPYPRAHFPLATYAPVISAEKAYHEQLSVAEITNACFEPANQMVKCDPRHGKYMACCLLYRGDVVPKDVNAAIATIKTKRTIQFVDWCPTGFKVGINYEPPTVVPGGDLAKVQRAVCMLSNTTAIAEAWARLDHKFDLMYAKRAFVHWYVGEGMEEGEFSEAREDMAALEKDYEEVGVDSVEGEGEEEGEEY
UniProt P02554, whole entry: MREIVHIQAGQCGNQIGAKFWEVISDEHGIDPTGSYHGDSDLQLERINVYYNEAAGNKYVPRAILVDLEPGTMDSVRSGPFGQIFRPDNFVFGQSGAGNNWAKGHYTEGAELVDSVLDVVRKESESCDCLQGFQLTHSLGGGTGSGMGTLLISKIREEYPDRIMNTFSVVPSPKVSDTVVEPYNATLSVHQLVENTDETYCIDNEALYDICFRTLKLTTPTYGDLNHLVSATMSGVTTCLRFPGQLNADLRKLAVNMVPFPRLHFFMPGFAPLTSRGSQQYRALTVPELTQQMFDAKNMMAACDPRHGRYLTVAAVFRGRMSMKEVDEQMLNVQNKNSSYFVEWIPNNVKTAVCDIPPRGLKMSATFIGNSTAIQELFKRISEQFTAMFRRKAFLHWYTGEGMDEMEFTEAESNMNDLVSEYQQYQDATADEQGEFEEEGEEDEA

This test addresses T1, MTs (Sus scrofa, UniProt P02550+P02554).
T1 construct: made in house; host or cells: GST-PH: E. coli BL21 (DE3) pLysS, pGEX-6P vector
Briefly: Confocal and electron microscopic observation of microtubules and GST-PH protein. The test is classed as binding. The note with it: confocal imaging, confirmed by electron microscopy; GST alone as control. Here is the method: The cDNA encoding PH domain (521-618 amino acids) of human dynamin 1 (NM_004408.4) (75) were prepared by PCR and subcloned into the plasmid pGEX-6P vector. The resulting plasmid was transformed into bacterial BL21 (DE3) pLysS strain for protein expression. The expression of GST-fusion proteins was induced by 0.1 mM isopropyl-1-thio-D-galactopyranoside (IPTG) at 37° C. for 3-6 h in LB media supplemented with 100 μg/ml ampicillin at Aww=0.8. GST-fusion proteins were then purified as described (76). The nucleotide sequences of the constructs using in this study were verified with DNA sequence analysis. All the purified protein solutions (1-3 mg/ml) were stored at −80° C. and thawed at 37° C. before use.
Microscopic observation of microtubule and GST-PH protein GST or GST-PH was labeled using HiLyte Fluor-555 labeling kit according to manufacture's manual (cat #LK14, Dojindo Co. LTD, Kumamoto, Japan). HiLyte Fluor-555 labeled GST or GST-PH was mixed with non-labelled each protein at the ratio of 1:1.2. Flutax 1-stabilized microtubules (4.1 μM) and fluorescent GST or GST-PH at 11 μM were mixed in GTB containing 2 μM Flutax 1 at 37° C. for 60 min. Eight μl of the mixture was spotted on the slide glass and mounted with Fluoromount (cat #K024, Di-agonistic BioSystems, CA, USA). […]

B1: GST-PH: glutathione transferase-tagged PH domain (521-618 amino acids) of human dynamin 1 (protein)
chain: IRKGWLTINNIGIMKGGSKEYWFVLTAENLSWYKDDEEKEKKYMLSVDNLKLRDVEKGFMSSKHIFALFNTEQRNVYKDYRQLELACETQEEVDSWKA
modifications: left off: a dimerising Fc or GST
As for B1, the “Co-localization with MTs” value is listed as “co-localized with MTs”.
